Results: ChEMBL document CHEMBL1201862, “PubChem BioAssay data set” (2004)
The list shows a part of the results, in another mix than the full data. Only a part of the results of these assays is listed, not drawn at random. Activity calls are given as the source filed them. No cut-off for these calls is given here.

target: T1, Thioredoxin reductase 1, cytoplasmic (Rattus norvegicus) (UniProt O89049); assay: qHTS Assay for Inhibitors of Mammalian Selenoprotein Thioredoxin Reductase 1 (TrxR1): qHTS. [Related pubchem assays (depositor defined):AID488771]; type: functional
T1 sequence (whole entry): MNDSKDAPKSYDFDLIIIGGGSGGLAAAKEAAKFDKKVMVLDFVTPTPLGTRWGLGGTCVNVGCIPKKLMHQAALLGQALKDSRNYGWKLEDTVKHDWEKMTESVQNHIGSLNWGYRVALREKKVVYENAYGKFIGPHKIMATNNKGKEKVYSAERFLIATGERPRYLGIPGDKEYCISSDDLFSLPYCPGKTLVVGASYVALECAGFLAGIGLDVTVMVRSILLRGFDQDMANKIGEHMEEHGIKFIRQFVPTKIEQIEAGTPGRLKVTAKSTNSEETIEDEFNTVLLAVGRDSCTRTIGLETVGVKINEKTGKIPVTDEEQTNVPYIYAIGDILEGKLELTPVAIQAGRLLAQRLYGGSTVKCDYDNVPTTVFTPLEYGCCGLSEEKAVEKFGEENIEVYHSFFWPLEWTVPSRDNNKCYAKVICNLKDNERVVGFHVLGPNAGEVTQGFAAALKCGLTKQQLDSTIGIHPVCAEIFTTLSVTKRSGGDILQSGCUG

Question: `O=C(O)C(O)c1ccccc1` (stereo unspecified) was tested. Which Potency did it give?
Answer: inactive
